Seven compounds from patent publication US10221163B2 (priority 2015, dated 2019) can be followed below.

By UniProt entry, the sequences of proteins in these tests, tags left out.
UniProt P52699, whole entry, looked up, species assumed: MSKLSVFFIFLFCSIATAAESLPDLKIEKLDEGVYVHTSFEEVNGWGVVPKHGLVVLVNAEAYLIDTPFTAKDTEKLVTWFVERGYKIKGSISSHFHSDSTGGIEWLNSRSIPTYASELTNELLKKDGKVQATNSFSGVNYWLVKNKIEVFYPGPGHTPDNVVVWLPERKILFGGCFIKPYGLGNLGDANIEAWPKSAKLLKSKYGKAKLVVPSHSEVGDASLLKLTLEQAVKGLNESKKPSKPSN

The structures appear in SMILES notation. pIC50: −log10 of the molar value. Where a name gives a salt, the structure may show the parent alone.

For one data set, the target named is IMP-1 (Serratia marcescens, UniProt P52699). The class given is biochemical. To be noted: fluorescence assay, CCF2-FA substrate, 2 pM enzyme, 2 hours at 25° C.
In a further data set the target is VIM-1 (Pseudomonas aeruginosa (strain ATCC 15692 / DSM 22644 / CIP 104116 / JCM 14847 / LMG 12228 / 1C / PRS 101 / PAO1), UniProt A0A0F7KYQ8). Briefly: biochemical. Particulars: VIM-1 IC50, fluorescence assay, CCF2-FA substrate, 30 pM enzyme, 2 hours at 25° C.
Data set [1] deals with Pseudomonas aeruginosa MB9798 vs MB9799. Particulars: ratio MITC95 PA_9798/MITC95 PA_9799.

Usually pIC50 stands for −log10 of the IC50, conventionally taken in molar units. Lower therefore signals a large IC50.

Consider `Nc1nc2c(-c3ccc(S(=O)(=O)NCC4(N)CCOC4)c(S(N)(=O)=O)c3-c3nnn[nH]3)cccc2s1` (stereo not shown) [Example 114, 3-((4-(2-aminobenzo[d]thiazol-4-yl)-2-sulfamoyl-3-(1H-tetrazol-5-yl)phenylsulfonamido)methyl)tetrahydrofuran-3-aminium formate], for which the pIC50 against IMP-1 was 9.53; against VIM-1, 9.51.
`Nc1nc2c(-c3ccc(S(=O)(=O)N[C@H]4C[C@H](N)C4)c(S(N)(=O)=O)c3-c3nnn[nH]3)cccc2s1` [Example 98, (1r,3r)-3-(4-(2-aminobenzo[d]thiazol-4-yl)-2-sulfamoyl-3-(1H-tetrazol-5-yl)phenylsulfonamido)cyclobutanaminium 2,2,2-trifluoroacetate] showed a pIC50 against IMP-1 of 9.68.
On the same count and under the same terms, under `Nc1nc2c(-c3ccc(S(=O)(=O)NC[C@@H]4CCCN4)c(S(N)(=O)=O)c3-c3nnn[nH]3)cccc2s1` [Example 125, (S)-2-((4-(2-aminobenzo[d]thiazol-4-yl)-2-sulfamoyl-3-(1H-tetrazol-5-yl)phenylsulfonamido)methyl)pyrrolidin-1-ium formate] stands 9.54; under `Nc1nc2c(-c3ccc(S(=O)(=O)NC[C@H]4CCCN4)c(S(N)(=O)=O)c3-c3nnn[nH]3)cccc2s1` [Example 126, (R)-2-((4-(2-aminobenzo[d]thiazol-4-yl)-2-sulfamoyl-3-(1H-tetrazol-5-yl)phenylsulfonamido)methyl)pyrrolidin-1-ium formate], 9.65.
At VIM-1, `C[N+]1(C)CC[C@@H](NS(=O)(=O)c2ccc(-c3cccc4[nH]c(N)nc34)c(-c3nn[nH]n3)c2S(N)(=O)=O)C1.[Cl-]` [Example 233, (R)-3-((4-(2-amino-1H-benzo[d]imidazol-4-yl)-2-sulfamoyl-3-(2H-tetrazol-5-yl)phenyl)sulfonamido)-1,1-dimethylpyrrolidin-1-ium chloride] gave a pIC50 of 10.05.
For the compound `Nc1nc2c(-c3ccc(S(=O)(=O)N[C@H]4C[C@H](N)C4)c(S(N)(=O)=O)c3-c3nnn[nH]3)cccc2s1` [Example 71, 4-(2-amino-1,3-benzothiazol-4-yl)-N^1-(trans-3-aminocyclobutyl)-3-(1H-tetrazol-5-yl)benzene-1,2-disulfonamide], the pIC50 was 9.45 against IMP-1 and 9.65 on VIM-1. For the same compound, the Efflux ratio in data set [1] is 1.00.
In turn, `Nc1nc2c(-c3ccc(S(=O)(=O)N4CC5C(N)C5C4)c(S(N)(=O)=O)c3-c3nnn[nH]3)cccc2s1` [Example 113, (1R,5S,6s)-3-((4-(2-aminobenzo[d]thiazol-4-yl)-2-sulfamoyl-3-(1H-tetrazol-5-yl)phenyl)sulfonyl)-3-azabicyclo[3.1.0]hexan-6-aminium 2,2,2-trifluoroacetate] showed a pIC50 at IMP-1 of 8.95.
